{"source": "patent US20230301999A1", "about": "“METHODS OF TREATING GOUT” (Horizon Therapeutics USA, Inc., priority 2020, published 2023)", "test_system": "adult patients with uncontrolled gout", "conditions": "MTX Run-in, mITT N = 14"}
{"smiles": "CN(Cc1cnc2nc(N)nc(N)c2n1)c1ccc(C(=O)N[C@@H](CCC(=O)O)C(=O)O)cc1", "note": "[Methotrexate]", "values": [{"measurement": "Infections And Infestations, Incidence Rate", "result": "2.0 Events/PY of MTX"}, {"measurement": "Infections And Infestations, Total Events", "result": 2}]}
